In PMC9673142, “1,3-Diarylpyrazolyl-acylsulfonamides Target HadAB/BC Complex in Mycobacterium tuberculosis” (ACS Infectious Diseases, 2022):
Converted amounts (≈) assume the structure as drawn.

Tested on: Mtb H37Rv
Assay: microbe, parasite or virus in culture
Assay type: cell-based
Conditions: Mycobacterium tuberculosis, read-out: Mtb MIC

In the case of `CS(=O)(=O)NC(=O)NCc1cn(-c2ccc(C(F)(F)F)nc2)nc1-c1ccncc1` [Compound 11], the MIC is reported as 1.2 µM (≈ 0.528 µg/mL).
